{"source": "PubChem BioAssay AID651821", "about": "(The Scripps Research Institute Molecular Screening Center, 2012)", "note": "Only a part is listed here, and it is no random draw. Some of these compounds have results that are not shown, active ones among them. Activity calls are given as the source filed them.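 How the source made its calls: active means inhibition above the plate cutoff, the mean of all test compounds on that plate plus 3 SD (cut at about 35% in these data); inactive means the rest.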", "data": [{"experiment": "binders of r(CAG) RNA repeats, primary screen, biochemical, fluorescence (AID 651821);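 further: 0% = DMSO alone and 100% = 100 µM mitoxantrone as full dye displacement; higher means more dye released from RNA so lower well fluorescence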", "conditions": "r(CAG) RNA repeat, TO-PRO-1 dye displacement fluorescence; at 3 µM; stronger effect = higher value", "values": [{"molecule": "O=C(NCC1(N2CCCCC2)CCCCC1)c1cc([N+](=O)[O-])ccc1Cl", "inhibition": "inactive: 0.32%"}, {"molecule": "CN1[C@@H]2CC[C@H]1CC(OC(=O)C(O)(c1ccccc1)c1ccccc1)C2", "note": "(stereo partly specified)", "inhibition": "inactive: 0.28%"}, {"molecule": "COc1cc(SC)ccc1C(=O)NCC1(N(C)C)CCCCC1", "inhibition": "inactive: -7.54%"}, {"molecule": "CCN(CC)CC(C)C(C)OC(=O)C(O)(c1ccccc1)c1ccccc1", "note": "(stereo unspecified)", "inhibition": "inactive: -3.61%"}, {"molecule": "CC(C)N1C(=O)CC2(CCN(CCOC(=O)C(O)(c3ccccc3)c3ccccc3)CC2)C1=O", "inhibition": "inactive: -11.8%"}, {"molecule": "Cc1ccc(C(=O)NCC2(N3CCCCC3)CCCCC2)cc1", "inhibition": "inactive: 2.98%"}, {"molecule": "CN(C)C1CCCC1OC(=O)C(O)(c1ccccc1)c1ccccc1", "note": "(stereo unspecified)", "inhibition": "inactive: -2.88%"}, {"molecule": "CN(C)c1ccc(C(=O)NCC2(N(C)C)CCCCC2)cc1", "inhibition": "inactive: -4.55%"}, {"molecule": "Cc1ccccc1C(=O)NCC1(N2CCCCC2)CCCCC1", "inhibition": "inactive: -0.43%"}, {"molecule": "O=C(NCC1(N2CCCCC2)CCCCC1)c1cc(F)c(F)cc1Cl", "inhibition": "inactive: -0.95%"}, {"molecule": "C=CCN1CCN(CCOC(=O)C(O)(c2ccccc2)c2ccccc2)CC1", "inhibition": "inactive: -7.77%"}, {"molecule": "COc1ccc(C(=O)NCC2(N(C)C)CCCCC2)cc1", "inhibition": "inactive: 2.31%"}, {"molecule": "O=C(NCC1(N2CCCCC2)CCCCC1)c1cccc(Br)c1", "inhibition": "inactive: -1.65%"}, {"molecule": "Cc1cc(C(=O)NCC2(N3CCCCC3)CCCCC2)ccc1[N+](=O)[O-]", "inhibition": "inactive: 0.99%"}, {"molecule": "CCN1CCCC(OC(=O)C2(O)c3ccccc3C=Cc3ccccc32)C1", "note": "(stereo unspecified)", "inhibition": "inactive: -1.53%"}, {"molecule": "CN(C)C1(CNC(=O)c2ccc(Br)cc2)CCCCC1", "inhibition": "inactive: 1.22%"}, {"molecule": "COc1cc(C(=O)NCC2(N(C)C)CCCCC2)c([N+](=O)[O-])cc1OC", "inhibition": "inactive: -4.87%"}, {"molecule": "COc1ccc(Cl)cc1C(=O)NCC1(N(C)C)CCCCC1", "inhibition": "inactive: -1.71%"}, {"molecule": "COc1cccc(C(=O)NCC2(N3CCCCC3)CCCCC2)c1", "inhibition": "inactive: -3.26%"}, {"molecule": "O=C(NCC1(N2CCCCC2)CCCCC1)c1cccc(Cl)c1", "inhibition": "inactive: 6.16%"}, {"molecule": "O=C(OC1CN2CCC1CC2)C(CO)(c1ccccc1)c1ccccc1", "note": "(stereo unspecified)", "inhibition": "inactive: -1.22%"}, {"molecule": "C=C(C)C#CC(O)(C(=O)OC1CCN(C)CC1)c1ccccc1", "note": "(stereo unspecified)", "inhibition": "inactive: 2.37%"}, {"molecule": "COc1ccc(Br)c(C(=O)NCC2(N3CCCCC3)CCCCC2)c1", "inhibition": "inactive: -3.35%"}, {"molecule": "O=C(OCCN1CCCC1)C(O)(c1ccccc1)c1ccccc1", "inhibition": "inactive: 0.68%"}, {"molecule": "CC(C)Oc1ccc(C(=O)NCC2(N(C)C)CCCCC2)cc1", "inhibition": "inactive: -4.85%"}, {"molecule": "CN(C)c1cccc(C(=O)NCC2(N(C)C)CCCCC2)c1", "inhibition": "inactive: -3.86%"}]}]}
